From ChEMBL document CHEMBL5050846 (2020)

Columns and labels:
in vivo [1] = settings: dog, iv, 3 mg/kg
in vivo [2] = settings: dog, iv

Question: What does the source list for CC(C)c1ccc(CC(=O)N[C@H](C)c2ccc(OCC(F)(F)F)cn2)cc1 [SUVECALTAMIDE]?
Answer: Cmax (in vivo [1]): 22 µM; AUC (in vivo [2]): 11.3 µM·h
